Results reported in PubChem BioAssay AID1194 (EPA DSSTox, 2008).
Active and inactive are the calls of the source.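 Rule for the calls: active = chemicals rated mutagenic or weakly mutagenic in the Salmonella bacterial test by one literature review, or positive overall by another; inconclusive = no clear call, values can overlap the other calls; inactive = the rest.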 A call without a number means that no potency is given here.

Test system: Salmonella typhimurium Ames mutagenicity, literature compiled
Test: DSSTox (CPDBAS) Carcinogenic Potency Database Salmonella Mutagenicity
Excerpt: The Carcinogenic Potency Database (CPDB) is a unique and widely used international resource of the results of over 6500 chronic, long-term animal cancer tests on over 1500 chemical substances. The CPDB provides easy access to the bioassay literature, with qualitative and quantitative analyses of both positive and negative experiments that have been published over the past 50 years in the general literature and by the National Cancer Institute/National Toxicology Program. The CPDB standardizes the diverse literature of cancer bioassays that vary widely in protocol, histopathological examination and nomenclature, and in the published author's choices of what information to provide in their papers. Results are reported in the CPDB for tests in rats, mice, hamsters, dogs, and nonhuman primates, and are based on the most positive result among all experiments for each sex-species. The DSSTox CPDBAS (all species) file incorporates data from the CPDB Summary Tables for the full list of over 1500 chemical substances tested in at least one species.
A chemical is classified within the CPDB as mutagenic, i.e. "active", in the Salmonella assay if it was evaluated overall as either "mutagenic" or "weakly mutagenic" by Zeiger [Zeiger, E. (1997) Genotoxicity Database. In: Gold and Zeiger, Eds. Handbook of Carcinogenic Potency and Genotoxicity Databases. […]

Compound	outcome
CN(CCCl)CCCl	active
O=[N+]([O-])C(Cl)(Cl)Cl	active
